# Target: CETP (Homo sapiens, UniProt P11597)
# Protein sequences, listed by entry. Tags and fused reporters are not part of them. Residues count along the entry.
# UniProt P11597, 18-493 limits assumed: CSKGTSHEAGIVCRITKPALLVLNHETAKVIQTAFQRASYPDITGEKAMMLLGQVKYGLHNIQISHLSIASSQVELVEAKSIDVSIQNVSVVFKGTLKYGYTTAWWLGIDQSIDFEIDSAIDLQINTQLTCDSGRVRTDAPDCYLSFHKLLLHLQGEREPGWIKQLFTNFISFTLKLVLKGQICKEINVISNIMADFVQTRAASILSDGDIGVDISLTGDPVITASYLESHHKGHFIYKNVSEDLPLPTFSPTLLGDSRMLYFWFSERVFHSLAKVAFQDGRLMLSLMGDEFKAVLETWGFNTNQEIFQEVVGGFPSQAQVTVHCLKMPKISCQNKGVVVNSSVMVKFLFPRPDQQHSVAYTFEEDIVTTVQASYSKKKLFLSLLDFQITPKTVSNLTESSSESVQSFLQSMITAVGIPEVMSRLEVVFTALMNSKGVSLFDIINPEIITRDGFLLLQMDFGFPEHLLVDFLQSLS
# Assay: CETP activity in vitro ([3H]CE transfer from HDL to LDL)
# Settings: read-out: CEPT Activity Assay IC50
row,IC50,SMILES
1,12.5 µM,OC(CN(Cc1cccc(C(F)(F)F)c1)c1cccc(Cl)c1)C(F)(F)F (stereo not drawn)
2,12 µM,OC(CN(Cc1cccc(OC(F)(F)F)c1)c1ccc(F)c(C(F)(F)F)c1)C(F)(F)F (stereo not drawn)
3,> 100 µM,OC(CN(Cc1cccc(OC(F)(F)F)c1)C1CCCC1)C(F)(F)F (stereo not drawn)
4,20.7 µM,OC(CN(Cc1cccc(C(F)(F)F)c1)c1cccc(Br)c1)C(F)(F)F (stereo not drawn)

# More lines, now with the values behind:
row,SMILES,IC50
1,CCCN(Cc1cccc(OC(F)(F)F)c1)CC(O)C(F)(F)F (stereo not drawn),> 100 µM
2,CC(C)N(Cc1cccc(OC(F)(F)F)c1)CC(O)C(F)(F)F (stereo not drawn),> 100 µM
3,OC(CN(Cc1cccc(C(F)(F)F)c1)c1ccccc1)C(F)(F)F (stereo not drawn),15.7 µM
4,Cc1cccc(CN(CC(O)C(F)(F)F)c2cccc(C(F)(F)F)c2)c1 (stereo not drawn),> 100 µM
5,OC(CN(Cc1cccc(OC(F)(F)F)c1)Cc1cccc(OC(F)(F)F)c1)C(F)(F)F (stereo not drawn),> 100 µM
